Experimental data as given in US9040547B2, “Pyrrolopyrimidine and purine derivatives” (PFIZER INC., priority 2011, dated 2015).

By UniProt entry, the sequences of proteins in these tests, tags left out. Where a name states a change or a piece, a line headed by the entry shows the natural chain unless it says otherwise. Chains listed by the source or under a name are the forms on record and can include a tag or linker. Residues count along the entry.
UniProt P00533, 25-1210 L858R limits assumed: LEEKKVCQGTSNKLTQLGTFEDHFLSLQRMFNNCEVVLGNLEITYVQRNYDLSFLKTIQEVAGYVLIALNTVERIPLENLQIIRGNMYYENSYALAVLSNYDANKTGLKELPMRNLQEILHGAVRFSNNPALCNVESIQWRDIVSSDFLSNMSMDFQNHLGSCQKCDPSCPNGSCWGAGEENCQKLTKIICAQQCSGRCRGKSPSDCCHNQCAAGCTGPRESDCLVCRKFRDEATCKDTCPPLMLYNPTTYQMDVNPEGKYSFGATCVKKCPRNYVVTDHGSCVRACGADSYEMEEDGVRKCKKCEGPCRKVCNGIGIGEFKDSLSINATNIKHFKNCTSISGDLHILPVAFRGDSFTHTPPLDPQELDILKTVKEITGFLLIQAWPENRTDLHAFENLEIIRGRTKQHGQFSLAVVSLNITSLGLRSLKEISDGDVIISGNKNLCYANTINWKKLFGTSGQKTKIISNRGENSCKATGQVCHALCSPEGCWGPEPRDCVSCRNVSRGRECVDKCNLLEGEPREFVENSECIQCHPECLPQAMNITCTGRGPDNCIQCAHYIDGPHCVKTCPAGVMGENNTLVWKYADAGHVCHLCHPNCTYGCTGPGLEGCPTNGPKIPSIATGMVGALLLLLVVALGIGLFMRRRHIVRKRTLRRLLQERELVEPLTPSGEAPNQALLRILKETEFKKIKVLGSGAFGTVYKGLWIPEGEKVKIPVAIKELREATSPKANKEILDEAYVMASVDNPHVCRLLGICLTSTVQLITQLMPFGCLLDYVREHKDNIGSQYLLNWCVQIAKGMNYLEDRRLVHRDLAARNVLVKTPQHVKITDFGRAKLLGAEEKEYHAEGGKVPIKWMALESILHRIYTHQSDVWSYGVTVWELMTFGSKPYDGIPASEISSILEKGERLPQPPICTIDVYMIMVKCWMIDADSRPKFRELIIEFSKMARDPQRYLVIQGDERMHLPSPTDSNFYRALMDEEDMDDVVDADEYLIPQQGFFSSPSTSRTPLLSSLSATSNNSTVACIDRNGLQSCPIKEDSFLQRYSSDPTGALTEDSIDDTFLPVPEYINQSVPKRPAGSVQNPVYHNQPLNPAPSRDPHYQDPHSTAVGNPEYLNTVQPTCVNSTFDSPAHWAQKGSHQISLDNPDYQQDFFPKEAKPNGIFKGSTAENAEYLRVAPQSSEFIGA
UniProt P00533, 25-1210 T790M/L858R limits assumed: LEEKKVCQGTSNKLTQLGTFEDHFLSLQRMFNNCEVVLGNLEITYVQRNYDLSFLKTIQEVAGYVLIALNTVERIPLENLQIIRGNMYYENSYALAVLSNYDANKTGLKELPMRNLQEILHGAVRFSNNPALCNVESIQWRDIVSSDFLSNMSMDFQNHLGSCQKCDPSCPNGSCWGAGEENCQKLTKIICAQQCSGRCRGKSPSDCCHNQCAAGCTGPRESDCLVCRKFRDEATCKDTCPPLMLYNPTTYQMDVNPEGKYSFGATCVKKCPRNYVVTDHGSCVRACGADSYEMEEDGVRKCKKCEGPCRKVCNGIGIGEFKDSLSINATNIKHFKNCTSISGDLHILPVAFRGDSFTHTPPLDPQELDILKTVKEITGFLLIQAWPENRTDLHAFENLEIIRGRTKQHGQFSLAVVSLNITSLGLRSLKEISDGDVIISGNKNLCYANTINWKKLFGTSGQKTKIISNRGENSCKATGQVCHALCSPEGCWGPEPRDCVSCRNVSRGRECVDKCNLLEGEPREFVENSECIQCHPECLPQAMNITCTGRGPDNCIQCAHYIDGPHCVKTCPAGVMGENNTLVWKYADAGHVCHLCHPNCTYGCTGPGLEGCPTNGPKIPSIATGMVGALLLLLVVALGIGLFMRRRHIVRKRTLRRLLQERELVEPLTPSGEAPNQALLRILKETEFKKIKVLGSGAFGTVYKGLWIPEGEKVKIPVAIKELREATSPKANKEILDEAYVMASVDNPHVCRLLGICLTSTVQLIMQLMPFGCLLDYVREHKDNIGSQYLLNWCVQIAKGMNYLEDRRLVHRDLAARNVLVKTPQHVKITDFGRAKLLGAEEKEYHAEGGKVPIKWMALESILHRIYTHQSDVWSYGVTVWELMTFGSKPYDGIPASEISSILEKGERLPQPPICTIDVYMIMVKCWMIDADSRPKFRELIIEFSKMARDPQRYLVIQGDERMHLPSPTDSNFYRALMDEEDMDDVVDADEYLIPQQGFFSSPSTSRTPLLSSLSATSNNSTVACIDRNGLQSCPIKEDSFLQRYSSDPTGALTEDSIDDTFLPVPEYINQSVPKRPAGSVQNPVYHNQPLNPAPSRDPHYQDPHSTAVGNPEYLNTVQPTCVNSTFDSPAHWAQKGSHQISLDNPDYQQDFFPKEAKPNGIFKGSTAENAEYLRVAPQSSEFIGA
UniProt P00533, 25-1210 limits assumed: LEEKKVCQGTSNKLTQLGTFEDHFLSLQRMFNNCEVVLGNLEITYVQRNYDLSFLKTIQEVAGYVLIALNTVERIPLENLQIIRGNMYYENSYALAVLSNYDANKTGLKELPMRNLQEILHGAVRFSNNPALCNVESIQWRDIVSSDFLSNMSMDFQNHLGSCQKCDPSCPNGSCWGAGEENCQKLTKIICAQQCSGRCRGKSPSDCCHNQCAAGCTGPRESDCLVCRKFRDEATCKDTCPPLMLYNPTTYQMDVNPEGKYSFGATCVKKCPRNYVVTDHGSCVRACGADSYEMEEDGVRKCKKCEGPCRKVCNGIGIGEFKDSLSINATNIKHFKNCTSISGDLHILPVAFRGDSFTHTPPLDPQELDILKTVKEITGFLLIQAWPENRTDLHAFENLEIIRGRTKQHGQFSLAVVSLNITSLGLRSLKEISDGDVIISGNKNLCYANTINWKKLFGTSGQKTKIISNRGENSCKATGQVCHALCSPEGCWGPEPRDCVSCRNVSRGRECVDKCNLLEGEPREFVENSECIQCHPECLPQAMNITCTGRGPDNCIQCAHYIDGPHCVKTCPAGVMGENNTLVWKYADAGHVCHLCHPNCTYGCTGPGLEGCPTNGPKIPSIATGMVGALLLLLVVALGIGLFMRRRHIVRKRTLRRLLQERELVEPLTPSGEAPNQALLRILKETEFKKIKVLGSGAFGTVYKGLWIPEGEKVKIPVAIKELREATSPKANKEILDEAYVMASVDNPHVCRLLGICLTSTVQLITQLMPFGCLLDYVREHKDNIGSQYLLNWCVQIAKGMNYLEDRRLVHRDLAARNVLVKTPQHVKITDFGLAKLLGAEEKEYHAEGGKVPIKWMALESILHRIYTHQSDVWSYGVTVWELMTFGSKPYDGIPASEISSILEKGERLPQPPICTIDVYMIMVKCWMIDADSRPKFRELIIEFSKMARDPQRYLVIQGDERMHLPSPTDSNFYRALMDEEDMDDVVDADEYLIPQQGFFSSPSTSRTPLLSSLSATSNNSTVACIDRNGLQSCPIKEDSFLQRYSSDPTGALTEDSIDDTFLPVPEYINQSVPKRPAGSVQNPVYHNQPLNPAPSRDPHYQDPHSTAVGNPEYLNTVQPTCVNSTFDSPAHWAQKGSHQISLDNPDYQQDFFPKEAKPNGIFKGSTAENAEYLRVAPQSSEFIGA
UniProt P00533, with tags, fused parts or gaps DEL746-750 limits assumed: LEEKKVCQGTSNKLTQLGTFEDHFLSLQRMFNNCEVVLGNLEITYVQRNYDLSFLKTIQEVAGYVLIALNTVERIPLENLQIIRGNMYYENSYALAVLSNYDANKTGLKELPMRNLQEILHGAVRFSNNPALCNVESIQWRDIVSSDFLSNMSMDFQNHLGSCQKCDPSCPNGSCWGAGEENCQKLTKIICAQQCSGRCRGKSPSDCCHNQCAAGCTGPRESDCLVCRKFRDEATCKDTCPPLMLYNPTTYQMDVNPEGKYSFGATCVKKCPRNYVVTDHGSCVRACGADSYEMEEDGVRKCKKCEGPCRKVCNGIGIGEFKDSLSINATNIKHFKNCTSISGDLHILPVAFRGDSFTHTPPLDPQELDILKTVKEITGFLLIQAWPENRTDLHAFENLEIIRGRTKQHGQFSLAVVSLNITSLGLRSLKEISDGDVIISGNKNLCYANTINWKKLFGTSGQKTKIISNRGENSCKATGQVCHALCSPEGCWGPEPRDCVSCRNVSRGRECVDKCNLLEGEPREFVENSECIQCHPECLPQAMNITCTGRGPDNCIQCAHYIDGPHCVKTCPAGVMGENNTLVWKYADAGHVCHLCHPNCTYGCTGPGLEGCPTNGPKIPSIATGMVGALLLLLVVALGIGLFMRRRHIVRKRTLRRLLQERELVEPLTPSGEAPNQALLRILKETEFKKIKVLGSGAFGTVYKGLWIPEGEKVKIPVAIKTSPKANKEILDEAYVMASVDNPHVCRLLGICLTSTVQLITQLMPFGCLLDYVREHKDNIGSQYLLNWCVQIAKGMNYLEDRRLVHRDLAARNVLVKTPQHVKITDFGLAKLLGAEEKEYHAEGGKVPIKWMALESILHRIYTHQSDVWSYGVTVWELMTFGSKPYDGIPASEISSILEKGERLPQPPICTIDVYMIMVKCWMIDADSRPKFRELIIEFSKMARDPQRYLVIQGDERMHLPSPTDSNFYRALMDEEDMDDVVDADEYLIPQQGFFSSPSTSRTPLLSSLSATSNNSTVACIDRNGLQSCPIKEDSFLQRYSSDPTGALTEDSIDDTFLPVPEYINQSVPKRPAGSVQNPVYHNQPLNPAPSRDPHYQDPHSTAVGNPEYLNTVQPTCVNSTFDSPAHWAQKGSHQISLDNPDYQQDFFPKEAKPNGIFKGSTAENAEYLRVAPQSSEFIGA

Experiments:
EGFR Del (PC9) = EGFR Del (PC9) (Homo sapiens, UniProt P00533, DEL746-750); experiment: EGFR ELISA, PC9 Del cells; format: cell-based; details: read-out: EGFR_ELISA9E PC9 Del IC50;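 note: cellular EGFR autophosphorylation at Tyr1068 quantified by sandwich ELISA of cell lysates after 2 h compound exposure at 37 °C, 11-point threefold dilution series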
[1] = target: EGFR L858R+T790M, endogenous (Homo sapiens, UniProt P00533, L858R/T790M); experiment: pEGFR Y1068 ELISA assay, NCI-H1975 cells; format: cell-based; details: read-out: pEGFRY1068 ELISA3T3T790M—L858R IC50 (nM), (H1975); value marked (H1975): NCI-H1975 cells, 2 hrs compound treatment;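 note: sandwich ELISA of endogenous phospho-EGFR (Tyr1068) in lysates of treated cells, 11-point 1:3 serial dilution tested in duplicate per plate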
EGFR L858R, endogenous = EGFR L858R, endogenous (Homo sapiens, UniProt P00533, L858R); experiment: pEGFR Y1068 ELISA assay, NCI-H3255 cells; format: cell-based; details: read-out: pEGFRY1068 ELISA3T3 L858R IC50 (nM), (H3255); value marked (H3255): NCI-H3255 cells, 2 hrs compound treatment
[2] = target: EGFR wildtype, endogenous (Homo sapiens, UniProt P00533); experiment: pEGFR Y1068 ELISA assay, A549 cells; format: cell-based; details: read-out: pEGFRY1068 ELISAA549 IC50, full serum media, stimulated 10 min with EGF (40 ng/mL);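 note: sandwich ELISA of phospho-EGFR Tyr1068 in cell lysates, cells exposed to compound for 2 h before EGF stimulation, 11-point threefold dilution series run in duplicate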
NIH3T3/EGFR_L858R = experiment: Cell proliferation assay (CellTiter-Glo), NIH3T3/EGFR_L858R; details: read-out: 3T3 L858R IC50, 3T3 cell line, three to five days of compound treatment
[3] = system: NIH3T3/EGFR_E746-A750_deletion+T790M; experiment: Cell proliferation assay (CellTiter-Glo), NIH3T3/EGFR_E746-A750_deletion+T790M; details: read-out: 3T3 del_T790M IC50, 3T3 cell line, three to five days of compound treatment
NIH3T3/EGFR L858R+T790M = experiment: Cell proliferation assay (CellTiter-Glo), NIH3T3/EGFR L858R+T790M; format: cell-based; details: read-out: 3T3 L858R_T790M IC50, 3T3 cell line, three to five days of compound treatment;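 note: luminescent ATP read-out proportional to metabolically active cell number, cells grown in serum-supplemented medium, 11-point threefold serial dilution tested in duplicate, incubation at 37 °C with 5% CO2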
[4] = system: NIH3T3/EGFR_E746-A750_deletion; experiment: Cell proliferation assay (CellTiter-Glo), NIH3T3/EGFR_E746-A750_deletion; details: read-out: 3T3 del IC50, 3T3 cell line, three to five days of compound treatment
EGFR L858R = EGFR L858R (Homo sapiens, UniProt P00533, L858R); experiment: pEGFR Y1068 ELISA assay, NIH3T3/EGFR_L858R cells; format: cell-based; details: read-out: pEGFRY1068 ELISA3T3 L858R IC50; 3T3 cell line, 2 hrs compound treatment;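 note: sandwich ELISA of phospho-EGFR Tyr1068 in lysates of stably transfected NIH/3T3 pools after 2 h compound exposure at 37 °C, 11-point threefold dilution series run in duplicate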
EGFR L858R+T790M = EGFR L858R+T790M (Homo sapiens, UniProt P00533, L858R/T790M); experiment: pEGFR Y1068 ELISA assay, NIH3T3/EGFR_L858R+T790M cells; format: cell-based; details: read-out: pEGFRY1068 ELISA3T3T790M—L858R IC50; 3T3 cell line, 2 hrs compound treatment;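 note: sandwich ELISA of EGFR phosphorylated at Tyr1068 in lysates of stably transfected NIH/3T3 cells, 11-point threefold dilution series run in duplicate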
EGFR E746-A750 deletion = EGFR E746-A750 deletion (Homo sapiens, UniProt P00533, DEL746-750); experiment: pEGFR Y1068 ELISA assay, NIH3T3/EGFR_E746-A750 deletion cells; format: cell-based; details: read-out: ELISA7E 3T3 Del IC50; 3T3 Del cells, 2 hrs compound treatment;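 note: sandwich ELISA on cell lysates detecting phospho-EGFR at Tyr1068, compounds run as 11-point threefold dilution series in duplicate, IC50 from inhibition of this phosphorylation signal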

| SMILES | IC50 (EGFR Del (PC9)) [nM] | IC50 [1] [nM] | IC50 (EGFR L858R, endogenous) [nM] | IC50 [2] [nM] | IC50 (EGFR L858R) [nM] | IC50 (EGFR L858R+T790M) [nM] | IC50 (EGFR E746-A750 deletion) [nM] | IC50 (NIH3T3/EGFR_L858R) [nM] | IC50 [3] [nM] | IC50 (NIH3T3/EGFR L858R+T790M) [nM] | IC50 [4] [nM] |
| --- | --- | --- | --- | --- | --- | --- | --- | --- | --- | --- | --- |
| C=CC(=O)N(C)[C@H]1C[C@H](Oc2nc(Nc3cn(C)nc3C)nc3[nH]cc(-c4ccccn4)c23)C1 (relative stereo) | 240 | 41 | 60 | 6120 |  |  |  |  |  |  |  |
| C=CC(=O)Nc1cccc(Oc2nc(Nc3cnn(C4CCN(C)CC4)c3)nc3[nH]cnc23)c1 |  |  |  |  |  |  | 633 |  |  |  |  |
| C=CC(=O)N(C)[C@H]1C[C@H](Oc2nc(Nc3cn[nH]c3)nc3[nH]cc(Cl)c23)C1 (relative stereo) | 1320 | 86 | 311 |  |  |  |  |  |  |  |  |

Further lines, with some results ahead:

| IC50 (EGFR Del (PC9)) [nM] | IC50 [1] [nM] | IC50 (EGFR L858R, endogenous) [nM] | IC50 [2] [nM] | IC50 (EGFR L858R) [nM] | IC50 (EGFR L858R+T790M) [nM] | IC50 (EGFR E746-A750 deletion) [nM] | SMILES | IC50 (NIH3T3/EGFR_L858R) [nM] | IC50 [3] [nM] | IC50 (NIH3T3/EGFR L858R+T790M) [nM] | IC50 [4] [nM] |
| --- | --- | --- | --- | --- | --- | --- | --- | --- | --- | --- | --- |
|  |  |  | > 10000 | 1930 | 446 |  | C=CC(=O)N1C[C@@H](COc2nc(Nc3cnn(C)c3)nc3[nH]cc(C#N)c23)[C@H](CC(F)(F)F)C1 (relative stereo) | < 10 | 10 to 100 | 100 to 1000 | 10 to 100 |
|  |  |  | 2340 | 1010 | 162 |  | C=CC(=O)N1C[C@@H](COc2nc(Nc3cnn(C)c3)nc3[nH]cc(C#N)c23)[C@H](C2CC2)C1 (relative stereo) | 100 to 1000 | < 10 | 100 to 1000 | < 10 |
